Assay results as given in US6727076B2 (priority 1995, dated 2004).
Like-named read-outs stand apart in the source and are kept apart here.

Key:
[1] = test system: E. coli MG1655; experiment: Phosphorus and sulfur source testing, EPS panel; type: cell-based; conditions: 35° C., 48 hours; for suitability as phosphorus source (growth, purple color): 1.0 mM phosphorus source replacing NaH2PO4; for suitability as sulfur source (growth, purple color): 100 μM sulfur source replacing Na2SO4
[2] = test system: E. coli MG1655; experiment: Nitrogen source testing, EN panel; type: cell-based; conditions: 3.0 mM nitrogen source replacing NH4Cl; 35° C., 48 hours
[3] = test system: E. coli strain 6321 (MG1655); experiment: Carbon source utilization in Biolog ES MicroPlate; type: cell-based; conditions: PPS inoculum, 35° C., 24 hours; further: key: '+' indicates that the organism tested was capable of utilizing the carbon source listed; '−' indicates that the organism tested was not capable of utilizing the carbon source listed; 'w' indicates weak positive reactions
[4] = test system: E. coli strain 14444 (MG1655 xylA); experiment: Carbon source utilization in Biolog ES MicroPlate; type: cell-based; conditions: PPS inoculum, 35° C., 24 hours; further: key: '+' indicates that the organism tested was capable of utilizing the carbon source listed; '−' indicates that the organism tested was not capable of utilizing the carbon source listed; 'w' indicates weak positive reactions
[5] = test system: E. coli strain 14443 (MG1655 (FB426)); experiment: Carbon source utilization in Biolog ES MicroPlate; type: cell-based; conditions: PPS inoculum, 35° C., 24 hours; further: key: '+' indicates that the organism tested was capable of utilizing the carbon source listed; '−' indicates that the organism tested was not capable of utilizing the carbon source listed; 'w' indicates weak positive reactions
[6] = test system: E. coli strain 14445 (MG1655 himA); experiment: Carbon source utilization in Biolog ES MicroPlate; type: cell-based; conditions: PPS inoculum, 35° C., 24 hours; further: key: '+' indicates that the organism tested was capable of utilizing the carbon source listed; '−' indicates that the organism tested was not capable of utilizing the carbon source listed; 'w' indicates weak positive reactions
[7] = test system: E. coli strain 6322 (EMG2 (K12, λF+)); experiment: Carbon source utilization in Biolog ES MicroPlate; type: cell-based; conditions: PPS inoculum, 35° C., 24 hours
[8] = test system: E. coli strain 6320 (W3110); experiment: Carbon source utilization in Biolog ES MicroPlate; type: cell-based; conditions: PPS inoculum, 35° C., 24 hours
[9] = test system: T. harzianum DAOM 190830; experiment: Carbon source utilization in SF-N MicroPlate with redox purple; type: cell-based, Trichoderma harzianum; conditions: redox purple 200 μM, 0.25% Gelrite, 30° C., approximately 24 hours
[10] = test system: E. coli 287 (ATCC #11775)
[11] = all three redox indicators (redox purple, tetrazolium violet, resazurin), both 0.85% NaCl and 0.2% carrageenan suspensions, 35° C., approximately 16 hours

For cytidine 3′:5′-cyclic monophosphate, the “suitability as phosphorus source (growth, purple color)” value (from here on “suitability as phosphorus source”) [1] was “not suitable”.

In the case of 2-aminoethyl phosphonate, the “suitability as phosphorus source” value [1] is reported as “weak positive”.

In the case of δ-amino-n-valeric acid, the “suitability as nitrogen source (growth, purple color)” value [2] is reported as “positive”.

With M-tartaric acid the carbon source utilization [3] was “−”, the carbon source utilization [4] was “−” and the carbon source utilization [5] was “−”. The carbon source utilization [6] was “−”, the carbon source utilization [7] was “−” and the carbon source utilization [8] was “−”.

With thymidine 3′:5′-cyclic monophosphate the “suitability as phosphorus source” value [1] was “not suitable”.

In the case of uridine 2′:3′-cyclic monophosphate, the “suitability as phosphorus source” value [1] is reported as “positive”.

With Acetoactetic acid the carbon source utilization [3] was “−”, the carbon source utilization [4] was “−” and the carbon source utilization [5] was “−”. For the same substance, the carbon source utilization [6] was “−”, the carbon source utilization [7] was “−” and the carbon source utilization [8] was “w”.

parabanic acid was tested, and the “suitability as nitrogen source (growth, purple color)” value [2] was “not suitable”.

In the case of phosphate, the “suitability as phosphorus source” value [1] is reported as “positive”.

i-erythritol was tested, and the “carbon source utilization result” value [9] was “positive” and the “carbon source utilization result” value [10, 11] was “negative”.

In the case of trimetaphosphate, the “suitability as phosphorus source” value [1] is reported as “positive”.

α-hydroxy-glutaric acid γ-lactone was tested, and the carbon source utilization [3] was “w”, the carbon source utilization [4] was “−” and the carbon source utilization [5] was “−”. For the same substance, the carbon source utilization [6] was “−”, the carbon source utilization [7] was “−” and the carbon source utilization [8] was “−”.

nitrophenyl phosphate was tested, and the “suitability as phosphorus source” value [1] was “not suitable”.

For 2′-deoxyglucose 6-phosphate, the “suitability as phosphorus source” value [1] was “positive”.

With dithiophosphate the “suitability as sulfur source (growth, purple color)” value [1] was “positive” and the “suitability as phosphorus source” value [1] was “positive”.

In the case of cytidine 2′:3′-cyclic monophosphate, the “suitability as phosphorus source” value [1] is reported as “positive”.

sulfate was tested, and the “suitability as sulfur source (growth, purple color)” value [1] was “positive”.

With Tween-40 the carbon source utilization [3] was “w”, the carbon source utilization [4] was “−” and the carbon source utilization [5] was “−”. The carbon source utilization [6] was “−”, the carbon source utilization [7] was “w” and the carbon source utilization [8] was “w”. The “carbon source utilization result” value [9] was “positive” and the “carbon source utilization result” value [10, 11] was “positive”.

In the case of adenosine 2′:3′-cyclic monophosphate, the “suitability as phosphorus source” value [1] is reported as “not suitable”.

For uridine 3′:5′-cyclic monophosphate, the “suitability as phosphorus source” value [1] was “not suitable”.

With M-inositol the carbon source utilization [3] was “−”, the carbon source utilization [4] was “−” and the carbon source utilization [5] was “−”. For the same substance, the carbon source utilization [6] was “−”, the carbon source utilization [7] was “−” and the carbon source utilization [8] was “−”. For the same substance, the “carbon source utilization result” value ([10]; redox purple, both 0.85% NaCl and 0.2% carrageenan suspensions) was “negative”, the “carbon source utilization result” value ([10]; resazurin, 0.2% carrageenan suspension) was “positive/negative” and the “carbon source utilization result” value ([10]; resazurin, 0.85% NaCl suspension) was “negative”. For the same substance, the “carbon source utilization result” value ([10]; tetrazolium violet, both 0.85% NaCl and 0.2% carrageenan suspensions) was “negative”.
